Assay results: PMC11345774, “Discovery of Novel, Selective, and Nonbasic Agonists for the Kappa-Opioid Receptor Determined by Salvinorin A-Based Virtual Screening” (Journal of Medicinal Chemistry, 2024)

Amino acid sequences for entries named in this document (tags omitted). A change or cut given only in a name is not applied to a line headed by its entry.
UniProt P41145: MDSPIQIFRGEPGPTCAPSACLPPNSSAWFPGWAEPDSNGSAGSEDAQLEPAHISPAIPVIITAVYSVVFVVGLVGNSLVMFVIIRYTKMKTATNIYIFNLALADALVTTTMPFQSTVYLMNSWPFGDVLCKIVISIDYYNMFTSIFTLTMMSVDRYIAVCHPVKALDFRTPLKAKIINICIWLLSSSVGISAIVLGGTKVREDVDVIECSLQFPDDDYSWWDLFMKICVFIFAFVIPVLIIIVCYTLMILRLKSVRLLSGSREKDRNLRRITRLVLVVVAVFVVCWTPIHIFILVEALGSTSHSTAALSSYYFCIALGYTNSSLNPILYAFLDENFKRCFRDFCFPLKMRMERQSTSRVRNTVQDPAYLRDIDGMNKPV

Molecular target: human KOR (Homo sapiens, UniProt P41145)
Experiment: [35S]GTPγS binding assay (G protein activation), CHO-hKOR cell membranes
Assay type: biochemical

COC(=O)[C@@H]1C[C@H](OC(C)=O)C(=O)[C@H]2[C@@]1(C)CC[C@H]1C(=O)O[C@H](c3ccoc3)C[C@]21C [SalA, Salvinorin A]
G protein activation Emax: 100 ± 1%
